Amino acid sequences for entries named in this document (tags omitted).
UniProt P20309, whole entry, looked up: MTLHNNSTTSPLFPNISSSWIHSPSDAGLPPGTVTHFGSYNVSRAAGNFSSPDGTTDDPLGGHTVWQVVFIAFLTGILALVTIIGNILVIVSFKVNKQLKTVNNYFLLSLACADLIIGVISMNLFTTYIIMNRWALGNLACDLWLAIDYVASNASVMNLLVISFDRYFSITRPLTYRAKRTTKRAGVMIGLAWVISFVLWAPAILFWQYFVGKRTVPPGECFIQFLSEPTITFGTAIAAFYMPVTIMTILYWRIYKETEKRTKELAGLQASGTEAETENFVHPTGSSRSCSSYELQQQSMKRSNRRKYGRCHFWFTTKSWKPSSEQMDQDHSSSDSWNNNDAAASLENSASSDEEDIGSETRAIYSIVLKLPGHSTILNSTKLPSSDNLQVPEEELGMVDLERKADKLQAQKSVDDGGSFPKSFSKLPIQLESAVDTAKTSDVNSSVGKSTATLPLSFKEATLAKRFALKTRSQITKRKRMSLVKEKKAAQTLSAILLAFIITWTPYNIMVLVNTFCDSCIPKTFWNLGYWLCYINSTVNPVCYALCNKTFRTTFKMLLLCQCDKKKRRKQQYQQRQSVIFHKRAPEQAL

According to patent publication US20090182033A1, “Cyclic Amine Derivatives and Their Uses” (ARGENTA DISCOVERY LTD., priority 2005, published 2009):

How the values were obtained:
[1] = molecular target: human M3 receptor (Homo sapiens, UniProt P20309); assay: Inhibition of M3 receptor activation via calcium mobilization; details: CHO cells expressing the human M3 receptor, Carbachol at EC80, calcium-sensitive dye
[2] = tested on: methacholine-induced bronchoconstriction in the Guinea pig; assay: Methacholine induced bronchoconstriction in vivo; details: 3 μg/kg i.n., 1 hr after dosing, i.v. methacholine

Row | SMILES | IC50 [1] | bronchoprotective effect [2]
1 | C[N+](C)(CCCc1ccccc1)C1CC2CCC1C2OC(=O)C(O)(c1cccs1)c1cccs1 (centres unmarked) | < 10 nM | –
2 | C[N+](C)(CCCc1ccccc1)C1CC2CCC1C2OC(=O)C(O)(c1cccs1)c1cccs1.[Br-] (centres unmarked) | – | bronchoprotective
